# Only a part is listed here, and it is no random draw. Calls of active or inactive are those of the source.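 The calls were made as follows: active = cell count reduction exceeding the screen mean by over 5 SD, scaled to untreated wells per plate (cut at about 78% in these data); inactive = the rest.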
# Experiment: HUVEC nuclei count loss under TNFa – imaging, Hoechst nuclei count, cytotoxicity control for VCAM1 expression modulator project, primary screen (AID 848);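 also: cells counted after 24 h of TNF alpha exposure following the 1 h pretreatment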
# Details: HUVEC TNFalpha-stimulated, at 2 µM, hits give high values
row,Compound,cell count reduction
1,O=P1(Nc2ccccn2)COc2ccccc2OC1,inactive: 18.5%
2,Clc1n[nH]nc1-c1nn[nH][15n]1,inactive: -29.9%
3,Cc1nn(-c2ccccc2)c2c1P(=O)(N1CCOCC1)N(C)C(c1ccccc1)=N2 (configuration not stated),inactive: -18.1%
4,O=P1(Nc2ncccn2)COc2ccccc2OC1,inactive: -33.3%
5,Cc1ccc(OCC(=O)OC2CN3CCC2CC3)cc1 (configuration not stated),inactive: -13.7%
6,O=P1(Nc2ccc(Br)cn2)COc2ccccc2OC1,inactive: -20.2%
7,CCOP1(=S)c2c(C)nn(CCC#N)c2N=C(c2ccccc2F)N1C (configuration not stated),inactive: -11.4%
8,O=[N+]([O-])c1ccc2c(c1)nnn2O,inactive: -25.4%
9,CCOP1(=S)c2c(C)nn(CCC#N)c2N=C(c2ccc(F)cc2)N1C (configuration not stated),inactive: 1.4%
10,Cc1cccc(OCC(=O)OC2CN3CCC2CC3)c1 (configuration not stated),inactive: 12.1%
11,O=C(OC1CN2CCC1CC2)C12CC3CC(CC(C3)C1)C2 (configuration not stated),inactive: -6.8%
12,ClCCSc1nnc(-c2cccnc2)o1,inactive: 2.9%
13,CCN(CC)C(=S)SC(NC=O)C(Cl)(Cl)Cl (configuration not stated),inactive: -3.8%
14,COP1(=S)c2c(C)nn(CCC#N)c2N=C(c2ccc(F)cc2)N1C (configuration not stated),inactive: 0.4%
15,O=C(COc1ccccc1)OC1CN2CCC1CC2 (configuration not stated),inactive: 62.9%
16,CCC(C)N(CC(C)C)C(=S)SC(NC(C)=O)C(Cl)(Cl)Cl (configuration not stated),inactive: -15.1%

row,Compound,cell count reduction
1,O=[N+]([O-])c1cccc2n[nH]nc12,inactive: -8.5%
2,CC(=O)N1C2C3N(C(C)=O)C1C1N(C(C)=O)C(C(N1C(C)=O)N3C(C)=O)N2C(C)=O,inactive: -7.5%
3,CCc1nc2c(n1)c1c(non1O)c1c2no[n+]1[O-],inactive: -21%
4,CC1CCN(C(=O)Oc2c(Cl)cc(Cl)c3cccnc23)CC1,inactive: 3.1%
5,CCOP(=O)(Nc1ccccc1)OCC,inactive: -23.4%
6,CN1CCCC(OC(=O)C(c2ccccc2)c2ccccc2)C1 (configuration not stated),inactive: -14.3%
7,CC(C)CC(=O)NC(Sc1ccc(Cl)cc1)C(Cl)(Cl)Cl (configuration not stated),inactive: -10%
8,Oc1ccccc1CNc1ccccn1,inactive: -12.5%
9,Cc1c2non([O-])c-2c(C)[n+](=O)[n+]1[O-],inactive: -18.9%
10,O=P1(Nc2nc3ccc(Cl)cc3s2)COc2ccccc2O1 (configuration not stated),inactive: 23.7%
11,CCOC(=O)NC(Sc1ccccc1)C(Cl)(Cl)Cl (configuration not stated),inactive: -7.5%
12,COC(=O)c1cc2c(s1)N=C(c1ccccc1)N(C)P2(=O)N1CCOCC1 (configuration not stated),inactive: -35.2%
13,CCC(=O)N1C2C3N(C(=O)CC)C1C1N(C(=O)CC)C(C(N1C(=O)CC)N3C(=O)CC)N2C(=O)CC,inactive: -28%
14,O=C(OC1CN2CCC1CC2)c1cccc(Cl)c1 (configuration not stated),inactive: -8.4%
15,O=P(Nc1nccs1)(c1ccccc1)c1ccccc1,inactive: -76.2%
16,c1nnnn1CCn1cnnn1,inactive: -26.7%
